Assay: Solubility of DBAB for each type of cyclodextrin and their 1:1 combinations (amount of CD required)
Assay type: physicochemical
Settings: single cyclodextrin or 1:1 weight ratio combination
Method: In order to investigate the solubility of one part by weight of DBAB for each type of cyclodextrin and the synergistic effect between cyclodextrins, the solubility of each of α-CD, γ-CD, HP-α-CD, HP-β-CD and HP-γ-CD and the solubility of their 1:1 weight ratio combinations was determined, as shown in Table 4 below. […] From the corresponding combination in Table 4 below, the amount of CD required was verified.

OC[C@H]1O[C@@H]2O[C@H]3[C@H](O)[C@@H](O)[C@@H](O[C@H]4[C@H](O)[C@@H](O)[C@@H](O[C@H]5[C@H](O)[C@@H](O)[C@@H](O[C@H]6[C@H](O)[C@@H](O)[C@@H](O[C@H]7[C@H](O)[C@@H](O)[C@@H](O[C@H]8[C@H](O)[C@@H](O)[C@@H](O[C@H]9[C@H](O)[C@@H](O)[C@@H](O[C@H]1[C@H](O)[C@H]2O)O[C@@H]9CO)O[C@@H]8CO)O[C@@H]7CO)O[C@@H]6CO)O[C@@H]5CO)O[C@@H]4CO)O[C@@H]3CO [γ, γ-cyclodextrin]
amount of CD required (weight ratio CD:DBAB, x:1) to transparently dissolve one part by weight of DBAB: >20
